{"sequences": {"note": "By UniProt entry, the sequences of proteins in these tests, tags left out. Residues count along the entry.", "UniProt Q86Z14, whole entry, chain 1 of 2": "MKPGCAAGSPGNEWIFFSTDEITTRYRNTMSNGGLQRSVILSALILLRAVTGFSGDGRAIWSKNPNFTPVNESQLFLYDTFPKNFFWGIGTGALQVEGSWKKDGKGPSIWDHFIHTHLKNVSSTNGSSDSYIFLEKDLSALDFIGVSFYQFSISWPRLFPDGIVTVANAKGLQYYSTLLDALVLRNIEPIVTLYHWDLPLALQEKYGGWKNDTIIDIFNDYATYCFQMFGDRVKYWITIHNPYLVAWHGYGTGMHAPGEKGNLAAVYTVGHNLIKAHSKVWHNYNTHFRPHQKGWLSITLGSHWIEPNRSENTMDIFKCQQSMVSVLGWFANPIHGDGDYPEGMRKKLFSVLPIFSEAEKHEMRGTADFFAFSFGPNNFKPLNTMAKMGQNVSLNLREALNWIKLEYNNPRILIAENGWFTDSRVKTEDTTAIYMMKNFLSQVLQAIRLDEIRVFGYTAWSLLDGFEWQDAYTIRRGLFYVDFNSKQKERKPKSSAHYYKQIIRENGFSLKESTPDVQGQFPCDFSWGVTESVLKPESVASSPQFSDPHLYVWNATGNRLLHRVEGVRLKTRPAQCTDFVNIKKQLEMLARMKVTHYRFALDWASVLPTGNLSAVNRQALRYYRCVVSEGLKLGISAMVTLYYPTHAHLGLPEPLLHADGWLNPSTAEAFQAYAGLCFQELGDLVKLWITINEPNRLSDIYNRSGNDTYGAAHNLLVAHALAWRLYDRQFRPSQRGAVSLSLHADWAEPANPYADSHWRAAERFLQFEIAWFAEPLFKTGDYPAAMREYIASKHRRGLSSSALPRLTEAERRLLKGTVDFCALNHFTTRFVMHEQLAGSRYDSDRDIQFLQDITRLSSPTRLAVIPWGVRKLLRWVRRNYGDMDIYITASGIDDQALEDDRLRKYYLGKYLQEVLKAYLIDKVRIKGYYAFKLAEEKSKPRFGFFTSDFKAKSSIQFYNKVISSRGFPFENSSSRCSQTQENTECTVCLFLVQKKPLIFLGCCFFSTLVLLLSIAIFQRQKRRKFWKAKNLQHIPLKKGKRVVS", "UniProt Q86Z14, 1-996 limits assumed": "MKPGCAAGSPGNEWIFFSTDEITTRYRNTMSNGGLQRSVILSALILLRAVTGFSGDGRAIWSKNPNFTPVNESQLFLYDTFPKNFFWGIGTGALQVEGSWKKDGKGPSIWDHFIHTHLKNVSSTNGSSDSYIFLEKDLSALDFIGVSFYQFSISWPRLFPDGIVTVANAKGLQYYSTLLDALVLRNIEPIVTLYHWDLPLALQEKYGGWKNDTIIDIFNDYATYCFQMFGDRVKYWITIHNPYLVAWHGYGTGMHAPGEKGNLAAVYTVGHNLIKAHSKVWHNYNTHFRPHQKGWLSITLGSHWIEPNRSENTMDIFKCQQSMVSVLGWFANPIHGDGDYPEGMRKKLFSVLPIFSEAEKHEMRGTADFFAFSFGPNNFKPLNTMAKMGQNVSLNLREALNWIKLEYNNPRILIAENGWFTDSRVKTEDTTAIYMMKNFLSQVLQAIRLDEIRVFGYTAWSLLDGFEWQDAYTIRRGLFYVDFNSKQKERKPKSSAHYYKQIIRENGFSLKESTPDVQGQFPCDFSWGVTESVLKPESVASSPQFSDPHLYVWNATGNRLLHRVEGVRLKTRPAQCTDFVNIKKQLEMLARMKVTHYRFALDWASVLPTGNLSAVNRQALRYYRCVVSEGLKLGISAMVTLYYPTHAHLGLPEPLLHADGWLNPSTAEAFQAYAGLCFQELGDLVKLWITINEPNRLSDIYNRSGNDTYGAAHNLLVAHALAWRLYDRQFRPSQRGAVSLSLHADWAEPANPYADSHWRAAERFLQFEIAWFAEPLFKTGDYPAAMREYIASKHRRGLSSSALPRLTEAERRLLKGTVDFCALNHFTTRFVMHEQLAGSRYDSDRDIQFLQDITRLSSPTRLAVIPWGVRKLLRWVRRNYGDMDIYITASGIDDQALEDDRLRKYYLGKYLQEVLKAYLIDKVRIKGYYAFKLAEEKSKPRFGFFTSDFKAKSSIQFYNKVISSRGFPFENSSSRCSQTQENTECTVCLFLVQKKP", "UniProt P11362, 22-822, chain 1 of 2": "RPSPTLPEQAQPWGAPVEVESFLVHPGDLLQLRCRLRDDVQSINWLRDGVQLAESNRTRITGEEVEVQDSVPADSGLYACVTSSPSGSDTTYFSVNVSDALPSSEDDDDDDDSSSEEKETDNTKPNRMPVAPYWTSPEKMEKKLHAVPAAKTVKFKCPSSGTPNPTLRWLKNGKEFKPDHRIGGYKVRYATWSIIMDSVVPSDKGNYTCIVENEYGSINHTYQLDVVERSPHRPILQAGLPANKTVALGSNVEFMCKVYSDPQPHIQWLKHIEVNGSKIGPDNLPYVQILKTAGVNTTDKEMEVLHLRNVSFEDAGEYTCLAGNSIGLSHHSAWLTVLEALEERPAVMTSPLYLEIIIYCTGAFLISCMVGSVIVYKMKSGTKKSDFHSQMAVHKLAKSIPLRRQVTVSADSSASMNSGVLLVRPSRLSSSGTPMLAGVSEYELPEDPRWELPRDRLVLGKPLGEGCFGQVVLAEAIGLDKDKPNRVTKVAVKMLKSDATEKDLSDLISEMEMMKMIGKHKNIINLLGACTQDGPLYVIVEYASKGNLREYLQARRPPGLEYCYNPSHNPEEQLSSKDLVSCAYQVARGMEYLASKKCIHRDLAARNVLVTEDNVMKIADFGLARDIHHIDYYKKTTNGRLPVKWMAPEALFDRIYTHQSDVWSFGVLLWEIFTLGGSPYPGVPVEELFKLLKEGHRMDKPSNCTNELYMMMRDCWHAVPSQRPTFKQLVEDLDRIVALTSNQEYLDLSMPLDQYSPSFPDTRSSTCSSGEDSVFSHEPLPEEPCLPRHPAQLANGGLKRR"}, "source": "patent US20170174769A1", "binders": {"B1": {"name": "Comparator 1 (antibody, from another filing, V domains shown)", "VH": "QVTLKESGPVLVKPTETLTLTCTVSGFSLNNARMGVSWIRQPPGKALEWLAHIFSNDEKSYSTSLKSRLTISKDTSKSQVVLIMTNMDPVDTATYYCARSVVTGGYYYDGMDVWGQGTTVTVSS", "VL": "SYVLTQPPSVSVAPGQTARITCGGNNIGSESVHWYQQKPGQAPVLVVYDDSDRPSGIPERFSGSNSGNTATLTISRVEAGDEADYYCQVWDGNSDHVVFGGGTKLTVLG"}}, "key": {"[1]": {"biological_target": "human KLB and human FGFR1c co-expressed on HEK293/hKLB/hFGFR1c/SRE-luc cells (human) (UniProt Q86Z14)", "assay": "FACS on stable HEK293 cells"}, "[2]": {"biological_target": "full-length human KLB on HEK293/hKLB/SRE-luc cells (human) (UniProt Q86Z14)", "assay": "FACS on stable HEK293 cells"}, "[3]": {"biological_target": "full-length human FGFR1c on HEK293/hFGFR1c/SRE-luc cells (human) (UniProt P11362)", "assay": "FACS on stable HEK293 cells"}, "[4]": {"biological_target": "cell-surface human FGFR1c (amino acids 1-731 of NP_075594) with cell-surface human KLB on HEK293/hFGFR1c/hKLB/SRE-Luc cells of Example 19 (human) (UniProt P11362)", "assay": "cell-based or functional assay"}, "[5]": {"biological_target": "extracellular domain of human KLB expressed with C-terminal HA and hexahistidine tags (human) (UniProt Q86Z14)", "assay": "SPR, mAb captured, 25 C"}, "[6]": {"biological_target": "extracellular domain of human FGFR1c expressed with C-terminal V5 and hexahistidine tags (human) (UniProt P11362)", "assay": "SPR, mAb captured, 25 C"}, "[7]": {"biological_target": "mouse KLB and mouse FGFR1c co-expressed on HEK293/mKLB/mFGFR1c/SRE-Luc cells (mouse)", "assay": "FACS on stable HEK293 cells, 33 nM"}, "[8]": {"biological_target": "human KLB and human FGFR1c co-expressed on HEK293/hKLB/hFGFR1c/SRE-luc cells (human) (UniProt Q86Z14)", "assay": "FACS on stable HEK293 cells, 33 nM"}, "[9]": {"biological_target": "full-length human FGFR1c on HEK293/hFGFR1c/SRE-luc cells (human) (UniProt P11362)", "assay": "FACS on stable HEK293 cells, 33 nM"}, "[10]": {"biological_target": "extracellular domain of human KLB expressed with C-terminal HA and hexahistidine tags (human) (UniProt Q86Z14)", "assay": "SPR, mAb captured, 37 C"}, "[11]": {"biological_target": "extracellular domain of human FGFR1c expressed with C-terminal V5 and hexahistidine tags (human) (UniProt P11362)", "assay": "SPR, mAb captured, 37 C"}, "[12]": {"biological_target": "cell-surface human FGFR1c (amino acids 1-731 of NP_075594) with cell-surface human KLB on HEK293/hFGFR1c/hKLB/SRE-Luc cells of Example 19 (human) (UniProt P11362)", "assay": "cell-based or functional assay", "remark": "listed apart in the source"}, "[13]": {"biological_target": "human KLB and human FGFR1c co-expressed on HEK293/hKLB/hFGFR1c/SRE-luc cells (human) (UniProt Q86Z14)", "assay": "cell-based or functional assay"}}, "note": "Read-outs that look alike come from different tables or passages of the source."}
{"binder": "B1", "values": [{"measurement": "binding ratio to unstained cells", "setting": "[1]", "result": 22, "unit": "fold"}, {"measurement": "binding ratio to unstained cells", "setting": "[2]", "result": 10, "unit": "fold"}, {"measurement": "binding ratio to unstained cells", "setting": "[3]", "result": 1, "unit": "fold"}, {"measurement": "% Activation", "setting": "[4]", "result": 7.5, "unit": "%"}, {"measurement": "EC50, SRE-luc activation", "setting": "[4]", "result": 0.24, "unit": "nM"}, {"measurement": "20 nM hKLB-HA-6His Bind (RU)", "setting": "[5]", "result": 75.3, "unit": "RU"}, {"measurement": "Kd", "setting": "[5]", "result": 0.305, "unit": "nM"}, {"measurement": "koff", "setting": "[5]", "result": 0.000149, "unit": "s⁻¹"}, {"measurement": "kon", "setting": "[5]", "result": 489000, "unit": "M⁻¹ s⁻¹"}, {"measurement": "t1/2", "setting": "[5]", "result": 77.5, "unit": "min"}, {"measurement": "180 nM hFGFR1c-V5-6His Bind (RU)", "setting": "[6]", "result": 0.4, "unit": "RU"}, {"measurement": "MFI Ratio to unstained cells", "setting": "[7]", "result": 1, "unit": "fold"}, {"measurement": "MFI Ratio to unstained cells", "setting": "[8]", "result": 15, "unit": "fold"}, {"measurement": "MFI Ratio to unstained cells", "setting": "[9]", "result": 1, "unit": "fold"}, {"measurement": "20 nM hKLB-HA-6His Bind (RU)", "setting": "[10]", "result": 189, "unit": "RU"}, {"measurement": "Kd", "setting": "[10]", "result": 0.614, "unit": "nM"}, {"measurement": "koff", "setting": "[10]", "result": 0.000321, "unit": "s⁻¹"}, {"measurement": "kon", "setting": "[10]", "result": 523000, "unit": "M⁻¹ s⁻¹"}, {"measurement": "t1/2", "setting": "[10]", "result": 36, "unit": "min"}, {"measurement": "180 nM hFGFR1c-V5-6His Bind (RU)", "setting": "[11]", "result": 0, "unit": "RU"}, {"measurement": "% Activation", "setting": "[12]", "result": 6.1, "unit": "%"}, {"measurement": "EC50, SRE-luc activation", "setting": "[12]", "result": 0.17, "unit": "nM"}, {"measurement": "EC50, SRE-luc activation without ligand", "setting": "[13]", "result": 0.15, "unit": "nM"}, {"measurement": "IC50, inhibition of 1 nM 6His-hFGF21", "setting": "[13]", "result": 0.11, "unit": "nM"}, {"measurement": "Maximum Activation (%)", "setting": "[13]", "result": 4.5, "unit": "%"}, {"measurement": "Maximum Inhibition (%)", "setting": "[13]", "result": 72, "unit": "%"}]}
